Test results as given in patent publication US12226386B2, “Compositions and methods for treating biofilms” (The Regents of the University of California, priority 2018, dated 2025).

Assays:
[1] = tested on: C. albicans biofilms; assay: in vitro biofilm disruption assay, fungal; format: cell-based, Candida albicans; conditions: 0.4% amino acid, p<0.001
Experimental: (§1) In vitro biofilm formation was tested using two assays, sustained inhibition and disruption. Both assays assess biofilm formed on polystyrene plates. The first, tests the effects of amino acid solution on a developing biofilm, while the latter tests the effects of the solution on a pre-formed mature biofilm, both compared to media without supplemented amino acids.
(§2) Other amino acids in the blood of animals could combat bacterial and fungal biofilm and therefore may be useful in treating these bacterial and fungal infections that would lie on the external surfaces of infected animals such as humans and could also be used to combat these pathogens on instruments and surfaces that need to be treated. Two types of biofilm assays were performed: a sustained inhibition assay and a disruption assay. The sustained inhibition assay assessed the compound's ability to prevent biofilm development throughout all stages of biofilm formation, while the disruption assay assessed the compound's ability to break up an existing mature biofilm.
(§3) For fungal biofilm assays, all solutions were prepared in RPMI 1640 medium. […]
(§4) Fungal strains were streaked on Yeast Peptone Dextrose (YPD) agar plates and incubated at 30° C. for 48 hours. […] Media was carefully aspirated and the biofilm was measured by optical density at 600 nm. […] Media was carefully aspirated and the biofilm was measured by optical density at 600 nm. […]

[2] = tested on: C. albicans biofilms; assay: in vitro sustained inhibition biofilm assay, fungal; format: cell-based, Candida albicans; conditions: 0.4% amino acid, p<0.001
Experimental: as §1, §2, §3, §4

N[C@@H](CCS)C(=O)O [Homocysteine, L-homocysteine] was tested. Which “Reduce F Biofilm” value [1] did it give?
The value was “● (a single dot [i.e. ●] signifies minor effect (from about 10 to about 30% change))”.

And the “Reduce F Biofilm” value [2]?
The value was “● (a single dot [i.e. ●] signifies minor effect (from about 10 to about 30% change))”.
